# In patent US20140227357A1, “FILL FORMULATIONS AND CAPSULES AND METHOD OF USE TO AVOID MIGRATION OF FILL INTO OR THROUGH THE SHELL” (CAPSUGEL BELGIUM NV, priority 2011, published 2014):
# Experiments:
# Hygroscopicity test = type: physicochemical
# [1] = Mechanical robustness test (% broken capsules); type: physicochemical; details: for % Broken capsules after 3 weeks storage: size 3 LICAPS
# Procedure: A mechanical robustness test was performed to evaluate the tendency for capsule brittleness when filled with 2-butanol as a function of the relative humidity of the ambient air.
# [2] = 40° C. oven
# [3] = www.chemicalbook.com; cited from earlier work
# [4] = Technical batch stability study, 2-butanol and 2-pentanone assay by gas chromatography; type: physicochemical; details: in Formulation 4, sealed LICAPS
# [5] = Compatibility testing: softening/deformation of filled capsules after storage at 40° C./75% RH; type: physicochemical
# Procedure: The same observation (softening) was confirmed at the 6 months time point.
# Compatibility testing: Compatibility testing was executed and no softening /of the capsules was observed after 3 months storage at 40° C./75% RH.
# Compatibility testing: Compatibility testing was executed according to the standard compatibility testing program described in the previous Examples.
# [6] = demineralized water
# [7] = 50 μL fill, after 3 months at 40° C./75% RH
# [8] = 50 μL fill, after 3 weeks at 40° C./75% RH
# [9] = 50 μL fill, after 6 months at 40° C./75% RH
# [10] = 225 μL fill, after 3 months at 40° C./75% RH
# [11] = 225 μL fill, after 3 weeks at 40° C./75% RH
# [12] = 225 μL fill, after 6 months at 40° C./75% RH
substance,measurement,setting,value
2-butanol [Formulation 2-butanol],results of the hygroscopicity test,"Hygroscopicity test; 50 μL fill, storage conditions below 30% RH and above 60% RH",not within acceptable parameters
same,results of the hygroscopicity test,"Hygroscopicity test; 225 μL fill, storage conditions below 20% RH and above 55% RH",not within acceptable parameters
same,hygroscopic propensity,Hygroscopicity test; high relative humidity conditions,hygroscopic propensity
same,% Broken capsules after 3 weeks storage,"[1]; 8% LOD, 50 μL fill",42%
same,% Broken capsules after 3 weeks storage,"[1]; 8% LOD, 225 μL fill",75%
same,% Broken capsules after 3 weeks storage,"[1]; 10% LOD, 50 μL fill",25%
same,% Broken capsules after 3 weeks storage,"[1]; 10% LOD, 225 μL fill",15%
same,percentages of broken capsules,"[1]; LOD at 12.6 and 15.4%, 50 μL fill",20%
same,weight of capsules (loss of fill),"[2]; 50 μL fill, CFS sealed size 3 LICAPS, in function of time",less pronounced than the one observed for the non sealed capsules
same,weight of capsules (loss of fill),"[2]; 225 μL fill, CFS sealed size 3 LICAPS, in function of time",small decrease in weight
same,weight of capsules (loss of fill),"[2]; 225 μL fill, non sealed size 3 LICAPS, after 5 days",important decrease in weight
same,hygroscopicity of the material,[3],hygroscopic material
same,"assay, % label claim",[4]; 6 months at 25° C./60% RH in PE bags,101.3%
same,"assay, % label claim",[4]; 6 months at 25° C./60% RH in PET/Alu/PE bags,100.5%
same,"assay, % label claim",[4]; 6 months at 40° C./75% RH in PET/Alu/PE bags,99.7%
same,interaction between fill and gelatin shell,"[5]; 50 μL fill, 3 weeks time point, 40° C./75% RH",No interaction was noticeable
same,softening of the capsules,"[5]; 50 μL fill, size 3 LICAPS, 6 months time point, 40° C./75% RH",softening
same,deformation of the capsules,"[5]; 225 μL fill, size 3 LICAPS, 3 months time point, 40° C./75% RH",deformation of the LICAPS® capsules was observed
same,softening of the capsules,"[5]; filled LICAPS capsules, after 3 months storage at 40° C./75% RH",softening of the capsules was observed
same,"% Acetaminophen dissolved at 45 min, Average",[6]; [7],94.3%
same,"% Acetaminophen dissolved at 45 min, Maximal",[6]; [7],97.0%
same,"% Acetaminophen dissolved at 45 min, Minimal",[6]; [7],91.7%
same,"% Acetaminophen dissolved at 45 min, Average",[6]; [8],98.2%
same,"% Acetaminophen dissolved at 45 min, Maximal",[6]; [8],99.7%
same,"% Acetaminophen dissolved at 45 min, Minimal",[6]; [8],95.0%
same,"% Acetaminophen dissolved at 45 min, Average",[6]; [9],96.1%
same,"% Acetaminophen dissolved at 45 min, Maximal",[6]; [9],98.8%
same,"% Acetaminophen dissolved at 45 min, Minimal",[6]; [9],90.8%
same,"% Acetaminophen dissolved at 45 min, Average",[6]; [10],99.7%
same,"% Acetaminophen dissolved at 45 min, Maximal",[6]; [10],99.7%
same,"% Acetaminophen dissolved at 45 min, Minimal",[6]; [10],98.5%
same,"% Acetaminophen dissolved at 45 min, Average",[6]; [11],97.2%
same,"% Acetaminophen dissolved at 45 min, Maximal",[6]; [11],100.0%
same,"% Acetaminophen dissolved at 45 min, Minimal",[6]; [11],90.4%
same,"% Acetaminophen dissolved at 45 min, Average",[6]; [12],96.2%
same,"% Acetaminophen dissolved at 45 min, Maximal",[6]; [12],100.0%
same,"% Acetaminophen dissolved at 45 min, Minimal",[6]; [12],90.1%

# Where two headings read alike, the source gives them in different places.
